## Permeability data for macrocyclic peptides

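Conditions beyond the assay type are not listed; see the original paper. Other peptides of the study may be missing here. Peptides that the database sets to -10, its floor, are left out.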

PAMPA measures passive passage through an artificial lipid membrane.
Permeability is in 10^-6 cm/s, converted from the database's log10 values; higher is more permeable.

{"smiles": "CCCC[C@@H]1NC(=O)[C@H](CC(C)C)N(C)C(=O)CN(CCCc2cnn(C)c2)C(=O)[C@H](Cc2ccc3ccccc3c2)NC(=O)CN(Cc2ccccc2Cn2cccn2)C(=O)[C@H]2CCCN2C1=O", "PAMPA (10^-6 cm/s)": "0.26"}
{"smiles": "CCCC[C@@H]1NC(=O)[C@H](CC(C)C)N(C)C(=O)CN(CCCN2CCCC2=O)C(=O)[C@H](C)NC(=O)CN(Cc2cc(CC(C)C)on2)C(=O)[C@H]2CCCN2C1=O", "PAMPA (10^-6 cm/s)": "0.26"}
{"smiles": "CCCC[C@@H]1NC(=O)[C@H](CC(C)C)N(C)C(=O)CN(CCCc2ccccc2)C(=O)[C@H](Cc2ccccc2)NC(=O)CN(CCC)C(=O)[C@H]2CCCN2C1=O", "PAMPA (10^-6 cm/s)": "0.91"}
{"smiles": "CCCC[C@@H]1NC(=O)[C@H](CC(C)C)N(C)C(=O)CN(CCc2cccnc2)C(=O)[C@H](Cc2ccccc2)NC(=O)CN(CCN2CCOCC2)C(=O)[C@H]2CCCN2C1=O", "PAMPA (10^-6 cm/s)": "0.22"}
{"smiles": "CCCCCN1CC(=O)N(C)[C@@H](CC(C)C)C(=O)N[C@@H](CCCC)C(=O)N2CCC[C@@H]2C(=O)N(CCC)CC(=O)N[C@@H](Cc2ccccc2)C1=O", "PAMPA (10^-6 cm/s)": "2.8"}
{"smiles": "CCCC[C@@H]1NC(=O)[C@H](CC(C)C)N(C)C(=O)CN(CCOc2ccccc2)C(=O)[C@H](Cc2ccc3ccccc3c2)NC(=O)CN(CCC)C(=O)[C@H]2CCCN2C1=O", "PAMPA (10^-6 cm/s)": "0.051"}
{"smiles": "CCCC[C@@H]1NC(=O)[C@H](CC(C)C)N(C)C(=O)CN(CCOc2ccccc2)C(=O)[C@H](Cc2ccccc2)NC(=O)CN(Cc2cc(CC(C)C)on2)C(=O)[C@H]2CCCN2C1=O", "PAMPA (10^-6 cm/s)": "0.072"}
{"smiles": "CCCC[C@@H]1NC(=O)[C@H](CC(C)C)N(C)C(=O)CN(CCOC)C(=O)[C@H](C)NC(=O)CN(Cc2ccccc2Cn2cccn2)C(=O)[C@H]2CCCN2C1=O", "PAMPA (10^-6 cm/s)": "0.31"}
{"smiles": "CCCC[C@@H]1NC(=O)[C@H](CC(C)C)N(C)C(=O)CN(CCCc2ccccc2)C(=O)[C@H](Cc2ccc3ccccc3c2)NC(=O)CN(Cc2ccccc2Cn2cccn2)C(=O)[C@H]2CCCN2C1=O", "PAMPA (10^-6 cm/s)": "0.016"}
{"smiles": "CCCC[C@@H]1NC(=O)[C@H](CC(C)C)N(C)C(=O)CN(CCCc2ccccc2)C(=O)[C@H](C)NC(=O)CN(Cc2cc(CC(C)C)on2)C(=O)[C@H]2CCCN2C1=O", "PAMPA (10^-6 cm/s)": "4.8"}
{"smiles": "CCCC[C@@H]1NC(=O)[C@H](CC(C)C)N(C)C(=O)CN(CCCc2ccccc2)C(=O)[C@H](Cc2ccccc2)NC(=O)CN(Cc2cc(CC(C)C)on2)C(=O)[C@H]2CCCN2C1=O", "PAMPA (10^-6 cm/s)": "0.046"}
{"smiles": "CCCC[C@@H]1NC(=O)[C@H](CC(C)C)N(C)C(=O)CN(Cc2ccccc2)C(=O)[C@H](Cc2ccc3ccccc3c2)NC(=O)CN(CCN2CCOCC2)C(=O)[C@H]2CCCN2C1=O", "PAMPA (10^-6 cm/s)": "1.2"}
{"smiles": "CCCC[C@@H]1NC(=O)[C@H](CC(C)C)N(C)C(=O)CN(CC2CCOCC2)C(=O)[C@H](CC(C)C)NC(=O)CN(CCCCc2ccccc2)C(=O)[C@H]2CCCN2C1=O", "PAMPA (10^-6 cm/s)": "4.4"}
{"smiles": "CCCC[C@@H]1NC(=O)[C@H](CC(C)C)N(C)C(=O)CN(CCCc2ccccc2)C(=O)[C@H](Cc2ccccc2)NC(=O)CN(CC(C)C)C(=O)[C@H]2CCCN2C1=O", "PAMPA (10^-6 cm/s)": "0.27"}
{"smiles": "CCCCCN1CC(=O)N(C)[C@@H](CC(C)C)C(=O)N[C@@H](CCCC)C(=O)N2CCC[C@@H]2C(=O)N(CCC)CC(=O)N[C@@H](Cc2ccc3ccccc3c2)C1=O", "PAMPA (10^-6 cm/s)": "0.063"}
{"smiles": "CCCC[C@@H]1NC(=O)[C@H](CC(C)C)N(C)C(=O)CN(CCc2cccnc2)C(=O)[C@H](C)NC(=O)CN(CCC)C(=O)[C@H]2CCCN2C1=O", "PAMPA (10^-6 cm/s)": "0.11"}
{"smiles": "CCCC[C@@H]1NC(=O)[C@H](CC(C)C)N(C)C(=O)CN(CCc2cccnc2)C(=O)[C@H](C)NC(=O)CN(Cc2cc(CC(C)C)on2)C(=O)[C@H]2CCCN2C1=O", "PAMPA (10^-6 cm/s)": "1.4"}
{"smiles": "CCCC[C@@H]1NC(=O)[C@H](CC(C)C)N(C)C(=O)CN(CCOc2ccccc2)C(=O)[C@H](Cc2ccccc2)NC(=O)CN(CCCCc2ccccc2)C(=O)[C@H]2CCCN2C1=O", "PAMPA (10^-6 cm/s)": "0.0028"}
{"smiles": "CCCC[C@@H]1NC(=O)[C@H](CC(C)C)N(C)C(=O)CN(CCc2cccnc2)C(=O)[C@H](C)NC(=O)CN(CCCOC(C)C)C(=O)[C@H]2CCCN2C1=O", "PAMPA (10^-6 cm/s)": "0.18"}
{"smiles": "CCCC[C@@H]1NC(=O)[C@H](CC(C)C)N(C)C(=O)CN(CC2CCCCC2)C(=O)[C@H](C)NC(=O)CN(Cc2cc(CC(C)C)on2)C(=O)[C@H]2CCCN2C1=O", "PAMPA (10^-6 cm/s)": "4.1"}
{"smiles": "CCCC[C@@H]1NC(=O)[C@H](CC(C)C)N(C)C(=O)CN(CCCN2CCCC2=O)C(=O)[C@H](Cc2ccccc2)NC(=O)CN(Cc2cc(CC(C)C)on2)C(=O)[C@H]2CCCN2C1=O", "PAMPA (10^-6 cm/s)": "1.9"}
{"smiles": "CCCC[C@@H]1NC(=O)[C@H](CC(C)C)N(C)C(=O)CN(CCOC)C(=O)[C@H](Cc2ccccc2)NC(=O)CN(CCCOC(C)C)C(=O)[C@H]2CCCN2C1=O", "PAMPA (10^-6 cm/s)": "8.3"}

3 of these entries, quoted again:

{"smiles": "CCCC[C@@H]1NC(=O)[C@H](CC(C)C)N(C)C(=O)CN(CCOC)C(=O)[C@H](C)NC(=O)CN(Cc2ccccc2Cn2cccn2)C(=O)[C@H]2CCCN2C1=O", "PAMPA (10^-6 cm/s)": "0.31"}
{"smiles": "CCCC[C@@H]1NC(=O)[C@H](CC(C)C)N(C)C(=O)CN(CCc2cccnc2)C(=O)[C@H](C)NC(=O)CN(Cc2cc(CC(C)C)on2)C(=O)[C@H]2CCCN2C1=O", "PAMPA (10^-6 cm/s)": "1.4"}
{"smiles": "CCCC[C@@H]1NC(=O)[C@H](CC(C)C)N(C)C(=O)CN(CCOC)C(=O)[C@H](Cc2ccccc2)NC(=O)CN(CCCOC(C)C)C(=O)[C@H]2CCCN2C1=O", "PAMPA (10^-6 cm/s)": "8.3"}

Collected by the curators of CycPeptMPDB (Li et al. 2023) from Furukawa et al. 2016, doi:10.1021/acs.jmedchem.6b01246.